The values below come from US9415087B2, “Compositions and methods for treating coronavirus infection” (LUDWIG-MAXIMILIANS-UNIVERSITAET MUENCHEN, priority 2014, dated 2016).

By UniProt entry, the sequences of proteins in these tests, tags left out.
UniProt P62937, whole entry: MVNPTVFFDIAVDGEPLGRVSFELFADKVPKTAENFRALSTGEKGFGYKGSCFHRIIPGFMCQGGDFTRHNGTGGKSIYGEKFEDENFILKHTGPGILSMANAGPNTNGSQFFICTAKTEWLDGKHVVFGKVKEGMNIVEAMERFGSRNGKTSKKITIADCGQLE

The test system of one experiment is NFAT. As to the kind of experiment: NFAT reporter gene assay (luciferase) in Jurkat cells. Format: cell-based. Particulars: luciferase-coupled NFAT reporter gene assay. In general terms: In a reporter assay the amount or activity of a reporter protein is the signal.
The target in the next experiment is human CypA (Homo sapiens, UniProt P62937). Particulars: read-out: In vitro inhibition human CypA IC50; protease-coupled PPIase assay.

For orientation: IC50 means the concentration at which inhibition is half-maximal. With `CO[C@H]1C[C@@H](C)C/C(C)=C/[C@@H](CC=CC(=O)NC(C)(C)C)C(=O)C[C@H](O)[C@@H](C)[C@@H](/C(C)=C/[C@@H]2CC[C@@H](O)[C@H](OC)C2)OC(=O)[C@@H]2CCCCN2C(=O)C(=O)[C@]2(O)O[C@H]1[C@@H](OC)C[C@H]2C`, the “In vitro inhibition NFAT reporter gene assay IC50” value in the experiment with NFAT is “no”. Besides, on human CypA, the IC50 is 10.2 nM.
